Measured values as given in patent US20050272055A1 (priority 2000, published 2005).

Tested on: piglets
Set-up: species or system Yorkshire piglets
Conditions: in vivo

CC(=O)CCCCn1c(=O)c2c(ncn2C)n(C)c1=O [Pentoxifylline]
effect on lethal shock: no effect
